Experimental data reported in PMC6744613 (ACS chemical neuroscience, 2018).
Read-outs that look alike come from different tables or passages of the source.

By UniProt entry, the sequences of proteins in these tests, tags left out. Residues count along the entry.
UniProt P23219, 24-599: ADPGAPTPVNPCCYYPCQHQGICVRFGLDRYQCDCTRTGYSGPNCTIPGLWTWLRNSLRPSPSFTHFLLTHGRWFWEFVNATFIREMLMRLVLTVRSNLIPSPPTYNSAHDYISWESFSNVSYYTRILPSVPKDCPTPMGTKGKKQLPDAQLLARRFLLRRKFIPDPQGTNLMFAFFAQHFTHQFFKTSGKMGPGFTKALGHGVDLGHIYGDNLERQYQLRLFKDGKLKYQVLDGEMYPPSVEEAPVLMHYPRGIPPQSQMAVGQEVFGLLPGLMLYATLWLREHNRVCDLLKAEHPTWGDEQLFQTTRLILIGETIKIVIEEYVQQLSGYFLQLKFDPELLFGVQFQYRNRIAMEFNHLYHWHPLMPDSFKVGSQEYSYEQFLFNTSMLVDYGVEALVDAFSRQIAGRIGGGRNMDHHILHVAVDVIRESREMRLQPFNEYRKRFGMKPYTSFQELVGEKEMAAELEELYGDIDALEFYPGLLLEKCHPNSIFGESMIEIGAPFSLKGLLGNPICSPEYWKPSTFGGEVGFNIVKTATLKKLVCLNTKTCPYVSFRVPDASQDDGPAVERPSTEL

Target: COX-1 (Homo sapiens, UniProt P23219)
Experiment: COX-1 whole-blood enzymatic immunoassay
Format: cell-based

Row | Compound | IC50 (read-out: IC50 COX-1 Human, human whole blood, mean ± SD (n = 3)) | IC50
1 | COc1ccc(-c2nc(OC)nn2-c2ccc(OC)cc2)cc1 [Inhibitor 5] | 5 ± 5.2 nM | 
2 | COc1ccc(-c2nc(OCC(F)(F)F)nn2-c2ccc(OC)cc2)cc1 [Inhibitor 20, 1,5-Bis(4-methoxyphenyl)-3-(2,2,2-trifluoroethoxy)-1H-1,2,4-triazole] |  | 1 ± 0.2 nM
